# Target: human μ-opiate receptor (Homo sapiens, UniProt P35372)
# Amino acid sequences for entries named in this document (tags omitted). A change or cut given only in a name is not applied to a line headed by its entry.
# UniProt P35372, whole entry, looked up: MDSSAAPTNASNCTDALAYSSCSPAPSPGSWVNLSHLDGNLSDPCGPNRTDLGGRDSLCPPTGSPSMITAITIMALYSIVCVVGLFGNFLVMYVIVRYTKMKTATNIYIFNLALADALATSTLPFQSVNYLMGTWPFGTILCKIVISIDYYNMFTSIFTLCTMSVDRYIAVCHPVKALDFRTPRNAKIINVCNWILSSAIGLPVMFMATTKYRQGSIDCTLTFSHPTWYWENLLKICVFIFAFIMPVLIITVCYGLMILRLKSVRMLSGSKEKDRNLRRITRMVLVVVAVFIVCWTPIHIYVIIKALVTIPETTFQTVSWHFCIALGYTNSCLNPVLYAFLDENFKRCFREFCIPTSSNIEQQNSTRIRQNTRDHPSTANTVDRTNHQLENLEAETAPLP
# UniProt P41146: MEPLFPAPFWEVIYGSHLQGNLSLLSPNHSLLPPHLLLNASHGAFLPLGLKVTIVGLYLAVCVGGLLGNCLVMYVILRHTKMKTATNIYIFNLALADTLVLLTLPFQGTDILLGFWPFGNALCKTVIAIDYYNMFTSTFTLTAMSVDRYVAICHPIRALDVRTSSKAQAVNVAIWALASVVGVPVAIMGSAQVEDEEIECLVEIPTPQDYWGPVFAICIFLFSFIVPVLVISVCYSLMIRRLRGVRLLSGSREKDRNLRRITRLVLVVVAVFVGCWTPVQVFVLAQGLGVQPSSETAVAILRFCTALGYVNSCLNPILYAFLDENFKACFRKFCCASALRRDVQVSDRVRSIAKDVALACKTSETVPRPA
# Assay: μ-binding: displacement of [3H]-naloxone, receptor membrane preparation of CHO-K1 cells
# Settings: 1 μM test compound; 1 nmol/l [3H]-naloxone
row,Molecule,"μ-binding, [1 μM], % inhibition [%]"
1,Glutaric acid-(4-benzyl-4-dimethylamino- cyclohexyl)-amide[2-(3-chloro-phenyl)- ethyl]-amide,84
2,Cc1cccc(CC2(N(C)C)CCC(NC(=O)CCC(=O)NCc3ccc(F)cc3C(F)(F)F)CC2)c1 (centres unmarked),66
3,CN(C)C1(Cc2ccc(Cl)cc2)CCC(NC(=O)CCC(=O)NC2CCc3ccccc32)CC1 (centres unmarked),51
4,Cc1ccccc1N1CCN(C(=O)CCCC(=O)NC2CCC(Cc3ccccc3)(N(C)C)CC2)CC1 (centres unmarked),59
5,CN(Cc1ccccc1)C(=O)CCC(=O)NC1CCC(Cc2cccc(Cl)c2)(N(C)C)CC1 (centres unmarked),67
6,Cc1cccc(CC2(N(C)C)CCC(NC(=O)CCC(=O)NCc3c(C)cccc3Cl)CC2)c1 (centres unmarked),54
7,Glutaric acid-(4-benzyl-4-dimethylamino- cyclohexyl)-amide[2-(4-chloro-phenyl)- propyl]-amide,68
8,CN(C)C1(Cc2cccc(Cl)c2)CCC(NC(=O)CCC(=O)NCCc2ccc(Oc3ccccc3)cc2)CC1 (centres unmarked),55
9,Glutaric acid-(4-benzyl-4-dimethylamino- cyclohexyl)-amide[2-(2-fluoro-phenyl)- ethyl]-amide,68
10,Cc1ccc(CC2(N(C)C)CCC(NC(=O)CCC(=O)NCCSCc3c(Cl)cccc3Cl)CC2)cc1 (centres unmarked),67
11,Cc1cccc(CC2(N(C)C)CCC(NC(=O)CCC(=O)NCc3ccccc3C(F)(F)F)CC2)c1 (centres unmarked),53
12,CN(C)C1(Cc2cccc(Cl)c2)CCC(NC(=O)CCC(=O)NCCc2ccccc2Cl)CC1 (centres unmarked),80
13,CC(C)CC(C)NC(=O)CCCC(=O)NC1CCC(Cc2ccccc2)(N(C)C)CC1 (centres unmarked),56
14,CN(C)C1(Cc2cccc(Cl)c2)CCC(NC(=O)CCC(=O)NCCSCc2ccccc2)CC1 (centres unmarked),70
15,Cc1cccc(CC2(N(C)C)CCC(NC(=O)CCC(=O)NCCc3ccc(Cl)cc3Cl)CC2)c1 (centres unmarked),50
16,COc1cccc(C(C)NC(=O)CCC(=O)NC2CCC(Cc3cccc(Cl)c3)(N(C)C)CC2)c1 (centres unmarked),56
17,Cc1ccc(CC2(N(C)C)CCC(NC(=O)CCC(=O)NCCc3ccc(F)cc3)CC2)cc1 (centres unmarked),51
18,Cc1cccc(CC2(N(C)C)CCC(NC(=O)CCC(=O)NC3CCCc4ccccc43)CC2)c1 (centres unmarked),58
19,Cc1cccc(CC2(N(C)C)CCC(NC(=O)CCC(=O)NCc3ccccc3Cl)CC2)c1 (centres unmarked),51

row,Molecule,"μ-binding, [1 μM], % inhibition [%]"
1,CN(C)C1(Cc2cccc(Cl)c2)CCC(NC(=O)CCC(=O)NCc2ccc(F)cc2)CC1 (centres unmarked),64
2,Cc1cccc(CNC(=O)CCC(=O)NC2CCC(Cc3cccc(Cl)c3)(N(C)C)CC2)c1 (centres unmarked),69
3,CN(C)C1(Cc2cccc(Cl)c2)CCC(NC(=O)CCC(=O)NCc2cc(F)cc(F)c2)CC1 (centres unmarked),50
4,Cc1cccc(CC2(N(C)C)CCC(NC(=O)CCC(=O)NCCc3ccc(F)cc3)CC2)c1 (centres unmarked),68
5,Cc1cccc(CC2(N(C)C)CCC(NC(=O)CCC(=O)NCCc3cccc(Cl)c3)CC2)c1 (centres unmarked),51
6,Cc1cccc(CC2(N(C)C)CCC(NC(=O)CCC(=O)NCCc3c(Cl)cccc3Cl)CC2)c1 (centres unmarked),74
7,Glutaric acid-(4-benzyl-4-dimethylamino- cyclohexyl)-amide[2-(2-ethoxy-phenyl)- ethyl]-amide,90
8,CN(C)C1(Cc2cccc(Cl)c2)CCC(NC(=O)CCC(=O)NCc2ccc(Br)cc2F)CC1 (centres unmarked),66
9,CN(C)C1(Cc2cccc(Cl)c2)CCC(NC(=O)CCC(=O)NCCc2ccc(Cl)cc2)CC1 (centres unmarked),62
10,N-[2-(4-chloro-phenyl)-ethyll-N′-[4- dimethylamino-4-(3-methyl-benzyl)- cyclohexyl]-succinamide,53
11,CN(C)C1(Cc2cccc(Cl)c2)CCC(NC(=O)CCC(=O)NCCc2cccc(Cl)c2)CC1 (centres unmarked),58
12,CCN(Cc1ccccc1)C(=O)CCC(=O)NC1CCC(Cc2cccc(C)c2)(N(C)C)CC1 (centres unmarked),60
13,CN(C)C1(Cc2cccc(Cl)c2)CCC(NC(=O)CCC(=O)NCc2ccco2)CC1 (centres unmarked),87
14,CN(C)C1(Cc2cccc(Cl)c2)CCC(NC(=O)CCC(=O)NCc2cccc(Br)c2)CC1 (centres unmarked),67
15,CN(C)C1(Cc2cccc(Cl)c2)CCC(NC(=O)CCC(=O)NCc2ccc(Cl)cc2)CC1 (centres unmarked),56
16,CN(C)C1(Cc2cccc(Cl)c2)CCC(NC(=O)CCC(=O)NC(c2ccccc2)c2ccccc2)CC1 (centres unmarked),62
17,CN(C)C1(Cc2cccc(Cl)c2)CCC(NC(=O)CCC(=O)NCc2ccccc2Cl)CC1 (centres unmarked),56
18,CN(C)C1(Cc2cccc(Cl)c2)CCC(NC(=O)CCC(=O)NCc2ccc(F)cc2F)CC1 (centres unmarked),58
19,N-[4-(3-chloro-benzyl)-4-dimethylamino- cyclohexyl]-N′-(1-naplithalen-1-yl-ethyl)- succinamide,54

# Target: ORL1 receptor (Homo sapiens, UniProt P41146)
# Assay: ORL1 binding: receptor binding assay with 3H-nociceptin/orphanin FQ, membranes of recombinant CHO-ORL1 cells
# Settings: 1 μM test compound; 0.5 nM 3H-nociceptin/orphanin FQ
row,Molecule,"ORL1-binding, [1 μM], % inhibition [%]"
1,CN(C)C1(c2cccs2)CCC(NC(=O)CCC(=O)NCCCc2ccccc2)CC1 (centres unmarked),96
2,CN(C)C1(c2ccccc2)CCC(NC(=O)CCC(=O)NCCc2ccc(Cl)cc2)CC1 (centres unmarked),92
3,CCOC(=O)C(Cc1ccc(Cl)cc1)NC(=O)CCCC(=O)NC1CCC(c2cccs2)(N(C)C)CC1 (centres unmarked),73
4,Glutaric acid-(4-dimethylamino-4-thiophen- 2-yl-cyclohexyl)-amide[2-(3-fluoro- phenyl)-ethyl]-amide,97
5,CC(CCc1ccccc1)NC(=O)CCC(=O)NC1CCC(c2cccs2)(N(C)C)CC1 (centres unmarked),88
6,CCN(Cc1ccccc1)C(=O)CCCC(=O)NC1CCC(c2cccs2)(N(C)C)CC1 (centres unmarked),78
7,CN(C)C1(c2cccs2)CCC(NC(=O)CCCC(=O)NCc2cccc(Br)c2)CC1 (centres unmarked),97
8,CCOc1ccccc1CN(Cc1ccco1)C(=O)CCC(=O)NC1CCC(c2cccs2)(N(C)C)CC1 (centres unmarked),76
9,CN(C)C1(c2ccccc2)CCC(NC(=O)CCC(=O)NCCc2cccc(Cl)c2)CC1 (centres unmarked),98
10,CN(C)C1(c2cccs2)CCC(NC(=O)CCC(=O)N(CCC#N)CCC#N)CC1 (centres unmarked),39
11,CN(C)C1(c2cccs2)CCC(NC(=O)CCCC(=O)Nc2cccc(Oc3ccccc3)c2)CC1 (centres unmarked),98
12,CN(C)C1(c2cccs2)CCC(NC(=O)CCCC(=O)NCCCc2ccccc2)CC1 (centres unmarked),94
13,CC1CCC(NC(=O)CCCC(=O)NC2CCC(c3cccs3)(N(C)C)CC2)CC1 (centres unmarked),81
14,CN(C)C1(c2cccs2)CCC(NC(=O)CCCC(=O)NCc2ccc(F)cc2C(F)(F)F)CC1 (centres unmarked),96
15,CN(C)C1(c2ccccc2)CCC(NC(=O)CCC(=O)N2CCN(Cc3ccc(C(C)(C)C)cc3)CC2)CC1 (centres unmarked),79
16,CN(CCc1c[nH]c2ccccc12)C(=O)CCC(=O)NC1CCC(c2ccccc2)(N(C)C)CC1 (centres unmarked),100
17,CN(C)C1(c2cccs2)CCC(NC(=O)CCC(=O)N2CCC(C(=O)c3ccc(Cl)cc3)CC2)CC1 (centres unmarked),69
18,CN(C)C1(c2cccs2)CCC(NC(=O)CCCC(=O)N2CCc3ccccc3C2)CC1 (centres unmarked),96

# — patent publication US8088763B2 (priority 2004, dated 2012)
